# Tested on: Vcap cells
# Experiment: CTG cell proliferation assay on Vcap cells (compounds alone or in combination, 5 days)
# Format: cell-based
# Conditions: Homo sapiens, 120 h, tested compound alone, read-out: Survival rate of Vcap cells
# Description: In vitro test of the inhibition effect of the compound in combination with androgen receptor pathway modulators on the prostate cancer cell proliferation.
# Inhibition effect of the compounds such as B101, B102, B103, B104, B105, B106, C111 and the like, androgen receptor pathway modulators, hormone compounds, alone or in combination with each other on the prostate cancer cell proliferation were tested on Vcap cells (androgen receptor (+) prostate cancer cells) (ATCC, catalogue number CRL-2876). The specific experimental operation was as follows: 5×10^3 Vcap cells per well were inoculated into 96-well plates with transparent bottom and white wall (Corning, catalogue number CLS3903) containing the specific medium, and were cultured in a 37° C., 5% CO2 incubator for 24 hours. The tested compounds and the androgen receptor pathway modulators were prepared to a 150 mM stocking solution with DMSO (Sigma, catalogue number 276855), diluted with culture medium to the desired concentrations (the final concentration of DMSO is 0.2%), and then added to each well, 2 wells/concentration, followed by being incubated in a 37° C., 5% CO2 incubator for 5 days. The tested compounds were used alone or in combination with other androgen receptor pathway modulators and/or hormone compounds respectively. […] After that, 100 μl of CellTiter-Glo® cell viability assay reagent (Promega, catalogue number G7570) was added to each well and mixed well on a vibrator for 10 minutes to induce cell lysis. The 96-well plate was placed at room temperature for 10 minutes, so as to stabilize its luminescence signal. A white bottom membrane was pasted on the bottom of the plate and the plate was tested using EnSpire.
compound,measurement,setting,value
"CNC(=O)c1ccc(N2C(=S)N(c3cnc(C#N)c(C(F)(F)F)c3)C(=O)C23CCC3)cc1F [ARN-509, reference compound]",viability at 0.1 µM,0.1 μM,81.8%
same,viability at 1 µM,1 μM,52.2%
same,viability at 10 µM,10 μM,48.9%

# Reference: US10933059B2, “Combination, application thereof and treatment method” (KANGPU BIOPHARMACEUTICALS, LTD., priority 2016, dated 2021)
